Test results taken from patent US4803208A, “Opiate agonists and antagonists” (Sloan-Kettering Institute For Cancer Research, priority 1985, dated 1989).

System: opiate receptors
Experiment: Irreversible opiate receptor binding/blocking (general statements)
Settings: two washes with incubation at 37° for 10 min
Description: Binding experiments were performed as previously described using 20 mg/ml of tissue (Pasternak et al, Molec Pharmacol 11: 340-351, 1975). In brief, brain membranes were prepared and triplicate samples incubated with [^3 H] labelled ligands and designated drugs for 30 minutes at 25° C., followed by filtration over Whatman GF/B filters. The filters were then counted in Formular 963 scintillation fluor. Specific binding is defined as the difference in binding in the presence and absence of levallorphan (1 uM). […] Each tissue wash included incubation for 10 min. at 37° C., centrifugation and resuspension. Irreversibility experiments included four washes before binding assays were performed, unless otherwise stated.

C=CCN1CC[C@]23c4c5ccc(O)c4O[C@H]2C(=O)CC[C@@]3(O)[C@H]1C5 [Naloxone, naloxone]
removal of reversible ligand by washing (in words): effectively removed
